Consider two molecules from ChEMBL document CHEMBL4665792, “Design and SAR of Withangulatin A Analogues that Act as Covalent TrxR Inhibitors through the Michael Addition Reaction Showing Potential in Cancer Treatment” (J Med Chem, 2020).

For this assay, the species on record is Homo sapiens. The conditions noted are these: time min <=30.

For the molecule `CC(=O)O[C@H]1C=C([C@H](C)[C@H]2CC(C)=C(C)C(=O)O2)[C@@]2(C)CC[C@H]3[C@@H](C[C@H]4O[C@]45[C@@H](O)C=CC(=O)[C@]35C)[C@]12O`, the Kinact is 0.0367 min⁻¹. The result for `CC(=O)O[C@H]1C=C([C@H](C)[C@H]2CC(C)=C(C)C(=O)O2)[C@@]2(C)CC[C@H]3[C@@H](C[C@H]4O[C@]45[C@@H](OC(=O)/C=C/C(=O)N(C)C)C=CC(=O)[C@]35C)[C@]12O` reads 0.0237 min⁻¹.
